# Reference: patent EP0561496A2, “cDNAs encoding the gastrin and CCK-B receptors” (NEW ENGLAND MEDICAL CENTER HOSPITALS, INC., priority 1992, dated 1993)
# Sequences of proteins named here, by UniProt entry; tags and fusion partners are left off. A change or cut given only in a name is not applied to a line headed by its entry.
# UniProt P01350: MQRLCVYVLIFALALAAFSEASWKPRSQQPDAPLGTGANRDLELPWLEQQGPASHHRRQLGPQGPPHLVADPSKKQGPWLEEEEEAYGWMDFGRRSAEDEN
# Biological target: human brain CCK-B receptor (recombinant, clone hCCKB, expressed in transfected COS-7 cells) (human)
# Experiment: competition against 125I-CCK-8, hCCKB transfected COS-7 cells
substance,measurement,value
gastrin I (from UniProt P01350 76-92) (peptide),IC50,940 pM
